Assay results taken from ChEMBL document CHEMBL1153857, “1,4-Diazepanes derived from (S)-serine--homopiperazines with improved sigma(1) (sigma) receptor affinity and selectivity” (Eur J Med Chem, 2009).

Assay: Selectivity for sigma 1 receptor in guinea pig brain membrane over sigma 2 receptor in rat liver membrane
Format: cell membranes

Q: For OC(CCCN1CCN(c2ncc(F)cn2)CC1)c1ccc(F)cc1 (stereo unspecified) [BMY-14802], which Ratio Ki is on record?
A: 1.5
